Results from patent US20040147478A1, “Combination chemotherapy” (priority 2002, published 2004).

Assays:
[1] = tested on: COLO-205 human colon carcinoma xenografts
[2] = tested on: COLO-205 human colon carcinoma xenografts; remark: listed apart in the source
[3] = tested on: COLO-205 human colon carcinoma xenografts; remark: listed apart in the source

O=C(NOC[C@H](O)CO)c1ccc(F)c(F)c1Nc1ccc(I)cc1F [Compound A, N-[(R)-2,3-Dihydroxy-propoxy]-3,4-difluoro-2-(2-fluoro-4-iodo-phenylamino)-benzamide]
CR (complete response) ([1]; Compound A 3.13 mg/kg qd alone): 1/10 | Non-specific Deaths ([1]; Compound A 3.13 mg/kg qd alone): 0/10 | PR (partial response) ([1]; Compound A 3.13 mg/kg qd alone): 3/10 | Tumor Free (day 112) ([1]; Compound A 3.13 mg/kg qd alone): 0/10 | Non-specific Deaths ([1]; Compound A 6.25 mg/kg qd alone): 1/10 | PR (partial response) ([1]; Compound A 6.25 mg/kg qd alone): 2/10 | Tumor Free (day 112) ([1]; Compound A 6.25 mg/kg qd alone): 1/10 | Non-specific Deaths ([1]; Compound A 25 mg/kg qd alone): 4/10 | CR (complete response) ([2]; Compound A 3.13 mg/kg qd alone): 7/10 | Non-specific Deaths ([2]; Compound A 3.13 mg/kg qd alone): 0/10 | PR (partial response) ([2]; Compound A 3.13 mg/kg qd alone): 2/10 | Tumor Free (day 129) ([2]; Compound A 3.13 mg/kg qd alone): 0/10 | CR (complete response) ([2]; Compound A 6.25 mg/kg qd alone): 8/10 | Non-specific Deaths ([2]; Compound A 6.25 mg/kg qd alone): 1/10 | PR (partial response) ([2]; Compound A 6.25 mg/kg qd alone): 1/10 | Tumor Free (day 129) ([2]; Compound A 6.25 mg/kg qd alone): 1/10 | Non-specific Deaths ([2]; Compound A 25 mg/kg qd alone): 8/10 | CR (complete response) ([3]; Compound A 3.13 mg/kg QD alone): 6/10 | Non-specific Deaths ([3]; Compound A 3.13 mg/kg QD alone): 0/10 | PR (partial response) ([3]; Compound A 3.13 mg/kg QD alone): 3/10 | Tumor Free (day 118) ([3]; Compound A 3.13 mg/kg QD alone): 0/10 | CR (complete response) ([3]; Compound A 6.25 mg/kg QD alone): 9/10 | Non-specific Deaths ([3]; Compound A 6.25 mg/kg QD alone): 0/10 | PR (partial response) ([3]; Compound A 6.25 mg/kg QD alone): 1/10 | Tumor Free (day 118) ([3]; Compound A 6.25 mg/kg QD alone): 1/10 | Non-specific Deaths ([3]; Compound A 25 mg/kg QD alone): 8/10

Where two headings read alike, the source gives them in different places.
